{
  "source": "paper PMC10654779",
  "about": "“Development of a fibroblast activation protein-targeted PET/NIR dual-modality probe and its application in head and neck cancer” (Frontiers in Bioengineering and Biotechnology, 2023)",
  "system": "U87MG xenografts",
  "conditions": "mouse, in vivo, iv",
  "data": [
    {"substance": "fluorine-18 fluorodeoxyglucose [[^18F]F-FDG]", "values": [
      {"measurement": "SUVmax of the tumor", "value": "0.36 ± 0.06"}
    ]}
  ]
}
